Earlier results in patent publication US20250367233A1, “NOVEL PHARMACEUTICAL COMPOSITION CONTAINING IRON AND MEGLUMINE” (priority 2024, published 2025).

Conditions: cited from earlier work

For iron dextran, the “risk for anaphylaxis at first exposure” value (first exposure, IV iron, JAMA. 2015, 314(19):2062-2068) is listed as 68 per 100,000 persons and the “adjusted odds ratio (OR) of anaphylaxis” value (iron dextran versus all non-dextran IV iron products combined, 95% CI, 2.0-3.3, P<0.001) is listed as 2.6.
